Source: PubChem BioAssay AID758 (NMMLSC, 2007)
Only a part is listed here, and it is no random draw. Activity calls are given as the source filed them.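 The calls were made as follows: active = fluorescent GTP binding to Rab7 beads changed by at least 20 points from the 100% baseline, either direction, mostly lower; inconclusive = compound itself probably fluorescent, or too few beads counted; inactive = the rest.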

Test system: Rab7 GTPase wild type (dog), Bodipy-FL-GTP binding
Assay: wildtype dog Rab7 nucleotide binding alteration – biochemical, multiplex bead flow cytometry, primary screen (AID 758);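 also: median green fluorescence of bound Bodipy-FL-GTP per Rab7 bead population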
Conditions: GST-Rab7 beads, fluorescent GTP binding, at 10 µM, actives lie on both sides, untreated = 100%, excess cold GTP = 0%

SMILES	GTP binding activity (percent of control)
O=P1(Nc2ncccn2)COc2ccccc2OC1	inactive: 99%
O=P1(Nc2ccc(Br)cn2)COc2ccccc2OC1	inactive: 94%
Cc1ccc(OCC(=O)OC2CN3CCC2CC3)cc1 (stereo not given)	inactive: 102%
Cc1nn(-c2ccccc2)c2c1P(=O)(N1CCOCC1)N(C)C(c1ccccc1)=N2 (stereo not given)	inactive: 100%
CC1CCC(C(C)C)C(OP(=O)(Nc2ccccn2)c2ccccc2)C1 (stereo not given)	inactive: 93%
CN(C)C1(CNC(=O)c2ccc(S(C)(=O)=O)cc2)CCCCC1	inactive: 101%
CC(C)/C=N\N=C(\N)N[N+](=O)[O-]	inactive: 97%
O=P1(Nc2ccccn2)COc2ccccc2OC1	inactive: 100%
Clc1n[nH]nc1-c1nn[nH][15n]1	inactive: 101%
Cc1ccc(NCCc2c([N+](=O)[O-])cc([N+](=O)[O-])cc2[N+](=O)[O-])cc1	inactive: 102%
COc1cc(C2NCCC3(OCCO3)C2(C)C)cc(OC)c1OC (stereo not given)	inactive: 96%
CCOP(=O)(Nc1cccc2ccccc12)OCC	inactive: 101%
COc1cc(C(=O)NCC2(N3CCOCC3)CCCCC2)cc(Cl)c1OC(C)C	inactive: 100%
Cc1cccc(OCC(=O)OC2CN3CCC2CC3)c1 (stereo not given)	inactive: 103%
CCOP1(=S)c2c(C)nn(CCC#N)c2N=C(c2ccc(F)cc2)N1C (stereo not given)	inactive: 96%
O=[N+]([O-])c1ccc2c(c1)nnn2O	inactive: 102%
CCOP1(=S)c2c(C)nn(CCC#N)c2N=C(c2ccccc2F)N1C (stereo not given)	inactive: 95%
O=P(Nc1nccs1)(c1ccccc1)c1nc2ccccc2s1 (stereo not given)	inactive: 98%
O=P(Nc1nccs1)(Oc1ccccc1)Oc1ccccc1	inactive: 94%
ClCCSc1nnc(-c2cccnc2)o1	inactive: 103%
CCN(CC)C(=S)SC(NC=O)C(Cl)(Cl)Cl (stereo not given)	inactive: 94%
CC(C)NC(=O)NP(=O)(Oc1ccccc1)Oc1ccccc1	inactive: 102%
O=[N+]([O-])c1cc([N+](=O)[O-])c(-c2ccn[nH]2)s1	inactive: 104%
Cc1ccc2nc3c(c(C)c2c1)CC(C(Cl)Cl)S3 (stereo not given)	inactive: 100%
COc1ccc(N/C(=N/P(=O)(N2CCOCC2)N2CCOCC2)N2CCOCC2)cc1	inactive: 101%

SMILES	GTP binding activity (percent of control)
Cc1c2c(nc3ccccc13)SC(C(Cl)Cl)C2 (stereo not given)	inactive: 99%
Cc1cc(=O)[nH]c(N[N+](=O)[O-])n1	inactive: 103%
COc1ccc2nc(NP(=O)(c3ccccc3)c3ccccc3)sc2c1	inactive: 103%
CCC(C)N(CC(C)C)C(=S)SC(NC(C)=O)C(Cl)(Cl)Cl (stereo not given)	inactive: 99%
COP1(=S)c2c(C)nn(CCC#N)c2N=C(c2ccc(F)cc2)N1C (stereo not given)	inactive: 96%
O=C(COc1ccccc1)OC1CN2CCC1CC2 (stereo not given)	inactive: 105%
Cc1cc(SC(NC=O)C(Cl)(Cl)Cl)ncn1 (stereo not given)	inactive: 107%
O=P(Nc1ccccn1)(c1cccc2ccccc12)c1cccc2ccccc12	inactive: 96%
Cc1cc(SC(NC(=O)c2ccccc2)C(Cl)(Cl)Cl)nc(C(C)C)n1 (stereo not given)	inactive: 102%
O=[N+]([O-])c1ncn(CCn2ncnc2[N+](=O)[O-])n1	inactive: 95%
CCN(/C(=N/P(=O)(N1CCOCC1)N1CCOCC1)N1CCOCC1)c1ccc(OC)cc1	inactive: 99%
CC1CCN(C(=O)Oc2c(Cl)cc(Cl)c3cccnc23)CC1	inactive: 100%
CN(C)C(=O)OCCc1n(C)cc[n+]1C	inactive: 103%
COc1ccc(C2=NCC(CBr)S2)cc1 (stereo not given)	inactive: 102%
Cc1ccc(NP(=O)(Oc2ccccc2)Oc2ccccc2)nc1	inactive: 103%
O=[N+]([O-])c1cc([N+](=O)[O-])c(CCNc2ccccc2)c([N+](=O)[O-])c1	inactive: 102%
CCc1nc2c(n1)c1c(non1O)c1c2no[n+]1[O-]	inactive: 96%
CC(=O)N1C2C3N(C(C)=O)C1C1N(C(C)=O)C(C(N1C(C)=O)N3C(C)=O)N2C(C)=O	inactive: 94%
O=[N+]([O-])c1cccc2n[nH]nc12	inactive: 101%
Oc1ccccc1CNc1ccccn1	inactive: 100%
Cc1c2non([O-])c-2c(C)[n+](=O)[n+]1[O-]	inactive: 100%
O=C(NC(Sc1ccncn1)C(Cl)(Cl)Cl)c1ccccc1 (stereo not given)	inactive: 98%
CC(C)CC(=O)NC(Sc1ccc(Cl)cc1)C(Cl)(Cl)Cl (stereo not given)	inactive: 103%
Cc1ccc(N/C(=N/P(=O)(N2CCOCC2)N2CCOCC2)N2CCOCC2)cc1	inactive: 94%
NC(=O)c1cc([N+](=O)[O-])cc([N+](=O)[O-])c1N	inactive: 97%

SMILES	GTP binding activity (percent of control)
Clc1ccc(Cl)c(NC2=NCC(CBr)S2)c1 (stereo not given)	inactive: 96%
CN1CCCC(OC(=O)C(c2ccccc2)c2ccccc2)C1 (stereo not given)	inactive: 102%
CCN(N=Nc1nonc1N)c1nonc1N	inactive: 95%
CCOP(=O)(Nc1ccccc1)OCC	inactive: 105%
Cc1cc(SC(NC(=O)c2ccc(F)cc2)C(Cl)(Cl)Cl)ncn1 (stereo not given)	inactive: 98%
CCC(=O)N1C2C3N(C(=O)CC)C1C1N(C(=O)CC)C(C(N1C(=O)CC)N3C(=O)CC)N2C(=O)CC	inactive: 98%
COC(=O)c1cc2c(s1)N=C(c1ccccc1)N(C)P2(=O)N1CCOCC1 (stereo not given)	inactive: 94%
CC(=O)NC(SC(=S)N(CC(C)C)CC(C)C)C(Cl)(Cl)Cl (stereo not given)	inactive: 97%
Cc1ccc(OP(=O)(Nc2ccccn2)Oc2ccc(C)cc2)cc1	inactive: 92%
O=c1c2cc([N+](=O)[O-])ccc2[nH]c2c([N+](=O)[O-])cc([N+](=O)[O-])cc12	inactive: 98%
c1ccc(-c2nn[nH]n2)c(-c2nn[nH]n2)c1	inactive: 95%
CCOC(=O)NC(Sc1ccccc1)C(Cl)(Cl)Cl (stereo not given)	inactive: 99%
O=C(NC1CCS(=O)(=O)C1)NP(=S)(Oc1ccccc1)Oc1ccccc1 (stereo not given)	inactive: 96%
CCNC(=S)/N=C(\N)N[N+](=O)[O-]	inactive: 97%
CC(=O)Nc1ccc(Oc2c([N+](=O)[O-])cc([N+](=O)[O-])cc2[N+](=O)[O-])cc1	inactive: 91%
O=P1(Nc2nc3ccc(Cl)cc3s2)COc2ccccc2O1 (stereo not given)	inactive: 96%
CCOc1ccc(C2=NCC(CBr)S2)cc1 (stereo not given)	inactive: 95%
CC(C)(C)C(=O)NC(Sc1ccccc1)C(Cl)(Cl)Cl (stereo not given)	inactive: 96%
O=P(Nc1nccs1)(c1ccccc1)c1ccccc1	inactive: 99%
CC(C)C(=O)NC(Sc1ccccc1)C(Cl)(Cl)Cl (stereo not given)	inactive: 104%
c1nnnn1CCn1cnnn1	inactive: 101%
CC(=O)NC(SC(=S)N(C)C)C(Cl)(Cl)Cl (stereo not given)	inactive: 99%
O=C(OC1CN2CCC1CC2)c1cccc(Cl)c1 (stereo not given)	inactive: 104%
C(Cc1nn[nH]n1)Cc1nn[nH]n1	inactive: 100%
O=P(Nc1ccccn1)(c1ccc(Br)cc1)c1ccc(Br)cc1	inactive: 96%
